Experimental data from US20110313041A1 (priority 2008, published 2011).

The chains behind the UniProt entries cited, without tags or fusion partners. Residues count along the entry.
UniProt P22303, 32-614: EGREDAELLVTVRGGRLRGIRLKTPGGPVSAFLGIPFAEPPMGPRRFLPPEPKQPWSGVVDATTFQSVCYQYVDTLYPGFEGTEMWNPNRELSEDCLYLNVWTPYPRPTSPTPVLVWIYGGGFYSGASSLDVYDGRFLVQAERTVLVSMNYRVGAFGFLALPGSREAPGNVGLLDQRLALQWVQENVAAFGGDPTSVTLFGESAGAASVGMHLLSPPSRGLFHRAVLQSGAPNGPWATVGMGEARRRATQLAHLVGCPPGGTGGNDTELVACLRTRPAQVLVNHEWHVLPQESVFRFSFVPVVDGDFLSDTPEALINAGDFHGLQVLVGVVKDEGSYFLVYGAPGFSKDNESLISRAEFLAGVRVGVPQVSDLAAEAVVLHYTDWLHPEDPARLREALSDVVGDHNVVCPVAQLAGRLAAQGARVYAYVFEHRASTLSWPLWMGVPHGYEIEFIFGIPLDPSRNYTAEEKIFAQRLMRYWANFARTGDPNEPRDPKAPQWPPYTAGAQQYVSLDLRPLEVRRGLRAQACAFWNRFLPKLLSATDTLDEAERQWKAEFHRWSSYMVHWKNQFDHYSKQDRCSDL

Molecular target: T1, Acetylcholinersterase (Homo sapiens, UniProt P22303)
T1 construct: endogenous in cells; host or cells: human subject in vivo (oral intake of the drug)
Experiment: treatment of chronic fatigue with Neostigminbromid, reactions at breakfast
Type: in vivo
Method: Immediately afterwards, response experiment to sublingual/buccal applied 2 g-Panthenol Tbl. was executed. […] After its decay and continuation of the breakfast with bread the same reactions in bladder, womb and bowel 10 minutes later repeated with time shortened duration. […] The 140 mg of the Acetylcholinersteraseinhibitor Neostigminbromid were still effective after 6 indifferent hours.
Acetylcholine, the natural excitation transmitter from the nerve to the muscle effects striped muscles in concentrations of 10^−6 g/l, smooth muscles already in concentrations of 10^−16 g/l. (4) These “adverse” reactions are contractions of smooth muscles of lachrymal gland, bladder, stomach, intestine, caused by there suddenly synthesized acetylcholine, which exceeds the Response threshold that is 10^−16 grams per liter of acetylcholine in smooth muscles: • a) within 10 minutes of ingestion into the stomach and after the end of reaction; • b) within 10 minutes of sublingual/buccal absorption of 2000 mg Tbl Panthenol, while Acetylcholinersterase-inhibition amongst 140 mg Neostgminbromid is existing. […] (13)

How did the duration of effectiveness (140 mg Neostigminbromid) turn out when `CN(C)C(=O)Oc1cccc([N+](C)(C)C)c1.[Br-]` [Neostigminbromid] was run?
The duration of effectiveness was no less than 6 h.

What about the “time until adverse reactions started after the first bite” value (140 mg Neostigminbromid late at night, breakfast next morning) of the same compound?
The value was 10 min.

What about the adverse reactions (140 mg Neostigminbromid, after first bite of breakfast) of the same compound?
The adverse reactions was “weeping nose, watery eyes, urination, body trimming”.

What about the “time after which adverse reactions subsided” value (140 mg Neostigminbromid, breakfast) of the same compound?
The value was 15 min.
